Test results published in US7951802B2, “Use of 7-azaindoles in the inhibition of c-Jun N-terminal kinase” (Eisai R&D Management Co., Ltd., priority 2007, dated 2011).

Amino acid sequences for entries named in this document (tags omitted).
UniProt P45984, whole entry: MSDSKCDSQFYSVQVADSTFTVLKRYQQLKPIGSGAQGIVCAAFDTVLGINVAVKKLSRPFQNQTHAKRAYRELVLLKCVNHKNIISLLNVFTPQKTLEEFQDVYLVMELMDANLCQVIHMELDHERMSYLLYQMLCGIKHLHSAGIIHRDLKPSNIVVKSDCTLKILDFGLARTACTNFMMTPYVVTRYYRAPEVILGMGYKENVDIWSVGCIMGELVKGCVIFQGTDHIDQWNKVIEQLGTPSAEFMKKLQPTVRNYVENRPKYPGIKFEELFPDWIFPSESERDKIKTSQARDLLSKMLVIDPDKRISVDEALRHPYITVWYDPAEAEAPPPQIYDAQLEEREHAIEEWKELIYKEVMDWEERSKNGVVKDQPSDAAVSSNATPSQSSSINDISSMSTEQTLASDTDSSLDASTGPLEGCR
UniProt P45983, whole entry: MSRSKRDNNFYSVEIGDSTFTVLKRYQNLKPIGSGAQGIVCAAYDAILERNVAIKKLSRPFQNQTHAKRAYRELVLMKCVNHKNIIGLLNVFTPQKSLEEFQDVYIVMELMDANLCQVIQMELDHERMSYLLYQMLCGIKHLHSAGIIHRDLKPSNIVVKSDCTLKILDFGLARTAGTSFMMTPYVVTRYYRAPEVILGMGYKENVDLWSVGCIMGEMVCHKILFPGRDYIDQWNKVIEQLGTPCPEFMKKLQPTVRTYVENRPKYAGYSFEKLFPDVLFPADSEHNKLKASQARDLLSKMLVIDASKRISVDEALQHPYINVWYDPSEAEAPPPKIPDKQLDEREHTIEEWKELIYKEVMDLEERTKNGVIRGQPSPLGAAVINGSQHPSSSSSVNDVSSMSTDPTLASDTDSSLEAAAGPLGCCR

What was measured:
JNK2 = JNK2 (Homo sapiens, UniProt P45984); experiment: JNK2 SPA assay (phosphorylation of GST-c-Jun); details: read-out: JNK2 IC50, 3.33 μM ATP, GST-c-Jun substrate
Method: (§1) JNK1, JNK2, JNK3—SPA Assay
(§2) JNK1, JNK2, JNK3—SPA Assay • 1. Compound is dissolved in DMSO to a convenient concentration and this is diluted in 10% DMSO to a five times concentrate of the desired starting concentration (frequently 1:100). • 2. 10 μl of 500 mM EDTA is added to alternative wells of the Opti-plate row, which will receive kinase reaction plus DMSO. This creates the negative control. • 3. For the JNK2 and JNK3 assay, compounds are prepared in six 2-fold dilutions with water and each concentration is tested in duplicate. For the JNK1 assay compounds are prepared in four 5-fold dilutions with water which are tested in triplicate. Controls are treated identically. • 4. 20 μl per well of each compound concentration is transferred to an Opti-plate, in duplicate. • 5. 30 μl (JNK2/3 SPA) or 50 μl (JNK1 SPA) of substrate solution (25 mM HEPES pH 7.5, 10 mM magnesium acetate with 3.33 μM ATP (JNK2/3) or 2 μM ATP (JNK1), approximately 7.5 kBq [γ-^33P] ATP, GST-c-Jun, in water) is added to each well. • 6. 50 μl (JNK2/3 SPA) or 30 μl (JNK1 SPA) of kinase solution (JNK in 25 mM HEPES pH 7.5, 10 mM Mg Acetate) is added to each well.
(§3) • 7. The plate is incubated for 30 minutes at room temperature. • 8. 100 μl of bead/stop solution is added to each well (5 mg/ml glutathione-PVT-SPA beads, 40 mM ATP in PBS). • 9. Plates are sealed and incubated for 30 minutes at room temperature, centrifuged for 10 minutes at 2500 g and counted. • 10. The IC50 values are calculated as the concentration of the compound being tested at which the phosphorylation of c-Jun is decreased to 50% of the control value.

JNK1 = JNK1 (Homo sapiens, UniProt P45983); experiment: JNK1 SPA assay (phosphorylation of GST-c-Jun); details: read-out: JNK1 IC50, 2 μM ATP, GST-c-Jun substrate
Method: as §1, §2, §3

P-c-Jun level in spleen = experiment: LPS-induced c-Jun phosphorylation in spleen of mice (HTRF); details: 20 mg/kg p.o. 30 minutes before LPS 10 mg/kg i.p.; spleen 1 hour after LPS; versus vehicle-treated animals
Method: (§4) LPS-Induced TNFα Suppression in Mice
(§5) The studies were carried out in male C57/B16 mice. Compounds (20 mg/kg; p.o.) were administered 30 minutes before injection of lipopolysaccharide (LPS). LPS was administered intraperitoneally at a dose of 10 mg/kg. Animals were sacrificed 1 hour following LPS injection. Blood was collected into heparinized tubes for measurement of plasma TNFα levels and spleens were collected for the measurement of c-Jun phosphorylation. Plasma TNFα was measured using an ELISA kit purchased from R&D systems. Spleens were homogenised, extracted in high salt (250 mM NaCl) lysis buffer with phosphatase inhibitors and c-Jun phosphorylation was measured using HTRF. The suppressive effect of compounds was calculated as the percentage reduction of the TNFα level in plasma and P-c-Jun level in spleen as compared with the vehicle-treated animals.

TNFα level in plasma = experiment: LPS-induced TNFα suppression in mice (plasma TNFα, ELISA); details: 20 mg/kg p.o. 30 minutes before LPS 10 mg/kg i.p.; plasma 1 hour after LPS; versus vehicle-treated animals
Method: as §4, §5

panel of 100 kinases = experiment: Selectivity against a panel of kinases (Upstate/Millipore), expressed as Gini coefficient; details: calculated from remaining activity against 100 kinases; compound 1 micromolar, ATP 10 micromolar; 0 = non-selective, 1 = perfect selectivity
Method: Selectivity of Compounds (I) Against a Panel of Kinases
Inhibitory potency of compound (I-8) and (I-60) at a concentration of 1 micromolar and (I-69) and (I-70) at a concentration of 5 micromolar with ATP concentration of 10 micromolar was determined at Upstate/Millipore against a panel of 100 kinases representing all major families within the kinome. The results are presented in Table 3 and are expressed as percentage of remaining activity.
For comparison purposes Table 4 contains the relevant inhibitory data for reference compounds A-L containing a (hetero)aromatic ring at C(5) of the 7-azaindole system.
Selectivity Expressed as Gini Coefficient
Selectivity of compounds according to the present invention and reference compounds expressed as Gini coefficient (J. Med. Chem. 2007, 50, 5773-5779) is shown in Table 5. The individual Gini coefficients have been calculated using the data in Tables 3 and 4. Value Gini=0 corresponds to a totally non-selective compound; value Gini=1 reflects perfect selectivity (inhibition of a single target only)

| Compound | IC50 (JNK2) | IC50 (JNK1) | Percentage reduction in the level of P-c-Jun (P-c-Jun level in spleen) | Percentage reduction in the level of TNFα (TNFα level in plasma) | Selectivity expressed as Gini coefficient (panel of 100 kinases) |
| --- | --- | --- | --- | --- | --- |
| CN1CCC(c2nc(-c3c[nH]c4ncc(C5=CCCC5)cc34)cs2)CC1 [Compound I-1, 5-Cyclopent-1-enyl-3-[2-(1-methyl-piperidin-4-yl)-thiazol-4-yl]-1H-pyrrolo[2,3-b]pyridine] | 831 nM | 302 nM | 15% | 77% |  |
| CN1CCN(C(=O)c2nc(-c3c[nH]c4ncc(C5=CCCC5)cc34)cs2)CC1 [Compound I-5, [4-(5-Cyclopent-1-enyl-1H-pyrrolo[2,3-b]pyridin-3-yl)-thiazol-2-yl]-(4-methyl-piperazin-1-yl)-methanone] | 126 nM | 117 nM | −32% | 66% |  |
| O=C(c1nc(-c2c[nH]c3ncc(C4CCCCC4)cc23)cs1)N1CCCCC1 [Compound I-7, [4-(5-Cyclohexyl-1H-pyrrolo[2,3-b]pyridin-3-yl)-thiazol-2-yl]-piperidin-1-yl-methanone] | 513 nM | 347 nM | 14% | 41% |  |
| O=C(c1nc(-c2c[nH]c3ncc(C4CCCCC4)cc23)cs1)N1CCOCC1 [Compound I-8, [4-(5-Cyclohexyl-1H-pyrrolo[2,3-b]pyridin-3-yl)-thiazol-2-yl]-morpholin-4-yl-methanone] | 214 nM | 166 nM | 7% | 21% | 0.493 |
| CN(C)C(=O)c1nc(-c2c[nH]c3ncc(C4CCCCC4)cc23)cs1 [Compound I-9, 4-[5-cyclohexyl-1H-pyrrolo[2,3-b]pyridin-3-yl]-thiazole-2-carboxylic acid dimethylamide] | 195 nM | 209 nM | 20% | 56% |  |
| CN1CCN(C(=O)c2nc(-c3c[nH]c4ncc(C5CCCCC5)cc34)cs2)CC1 [Compound I-10, [4-(5-Cyclohexyl-1H-pyrrolo[2,3-b]pyridin-3-yl)-thiazol-2-yl]-(4-methyl-piperazin-1-yl)-methanone] | 83 nM | 93 nM | 20% | 47% |  |
| CC1CC=C(c2cnc3[nH]cc(-c4csc(C(=O)N5CCN(C)CC5)n4)c3c2)CC1 (centres unmarked) [Compound I-14, {4-[5-(4-Methyl-cyclohex-1-enyl)-1H-pyrrolo[2,3-b]pyridin-3-yl]-thiazol-2-yl}-(4-methyl-piperazin-1-yl)-methanone] | 191 nM | 174 nM | 12% | 64% |  |
| CC1(C)C=CC(c2cnc3[nH]cc(-c4csc(C(=O)N5CCOCC5)n4)c3c2)=CC1 [Compound I-16, {4-[5-(4,4-Dimethyl-cyclohexa-1,5-dienyl)-1H-pyrrolo[2,3-b]pyridin-3-yl]-thiazol-2-yl}-morpholin-4-yl-methanone] | 661 nM | 457 nM | 32% | 56% |  |
| O=C(c1nc(-c2c[nH]c3ncc([C@H]4CC[C@H](N5CCOCC5)CC4)cc23)cs1)N1CCCCC1 [Compound I-33, (4-(5-((1r,4r)-4-morpholinocyclohexyl)-1H-pyrrolo[2,3-b]pyridin-3-yl)thiazol-2-yl)(piperidin-1-yl)methanone] | 209 nM | 209 nM |  |  |  |
